Reference: PubChem BioAssay AID1030 (National Center for Advancing Translational Sciences (NCATS), 2008)
Only a part is listed here, and it is no random draw. Results filed as inconclusive are left out. Activity calls are given as the source filed them. Calls follow the shape of the dose curve; as a rule, active = well fitted inhibition curve with a large enough effect (not every such curve was filed as active); inconclusive = small, poorly fitted or top-dose-only effect, or another doubt; inactive = no such curve, though single readings can be large or run the other way.

By UniProt entry, the sequences of proteins in these tests, tags left out. Where a name states a change or a piece, a line headed by the entry shows the natural chain unless it says otherwise.
UniProt P00352: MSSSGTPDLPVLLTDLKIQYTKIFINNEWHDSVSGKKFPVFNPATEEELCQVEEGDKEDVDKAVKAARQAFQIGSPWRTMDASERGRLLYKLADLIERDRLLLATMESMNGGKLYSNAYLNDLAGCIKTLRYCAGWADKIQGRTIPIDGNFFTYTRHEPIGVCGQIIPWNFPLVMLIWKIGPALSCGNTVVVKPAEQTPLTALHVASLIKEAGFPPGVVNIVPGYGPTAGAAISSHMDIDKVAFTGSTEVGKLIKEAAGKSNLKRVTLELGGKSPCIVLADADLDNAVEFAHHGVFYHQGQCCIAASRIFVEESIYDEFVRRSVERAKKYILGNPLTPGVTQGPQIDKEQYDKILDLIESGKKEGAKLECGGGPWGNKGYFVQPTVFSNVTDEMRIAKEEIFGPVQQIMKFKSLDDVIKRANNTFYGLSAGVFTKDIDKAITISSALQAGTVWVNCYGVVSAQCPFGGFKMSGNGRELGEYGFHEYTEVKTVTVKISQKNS

target: Aldehyde dehydrogenase 1A1 (Homo sapiens) (UniProt P00352); experiment: qHTS Assay for Inhibitors of Aldehyde Dehydrogenase 1 (ALDH1A1); conditions: Purified ALDH1A1, NADH fluorescence, propionaldehyde substrate; series mostly up to 75.3 µM; activity, negative = inhibition: at the top concentration;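 as to activity, negative = inhibition: plate controls were no enzyme wells and a reference inhibitor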
Potency is read from the fitted curve at half-maximal effect.

Row | SMILES | activity, negative = inhibition | Potency
1 | CC(=O)Nc1ccc([As](=O)(O)O)c(O)c1 | inactive: 6.53% | –
2 | CC(=O)Nc1ccc(Oc2c([N+](=O)[O-])cc([N+](=O)[O-])cc2[N+](=O)[O-])cc1 | inactive: -1.71% | –
3 | O=P1(Nc2nc3ccc(Cl)cc3s2)COc2ccccc2O1 (centres undefined) | inactive: -3.31% | –
4 | CCOc1ccc(C2=NCC(CBr)S2)cc1 (centres undefined) | inactive: 5.58% | –
5 | CC(C)(C)C(=O)NC(Sc1ccccc1)C(Cl)(Cl)Cl (centres undefined) | inactive: -1.94% | –
6 | COC(=O)c1cc2c(s1)N=C(c1ccccc1)N(C)P2(=O)N1CCOCC1 (centres undefined) | inactive: -6.34% | –
7 | CC(=O)NC(SC(=S)N(CC(C)C)CC(C)C)C(Cl)(Cl)Cl (centres undefined) | inactive: -14.8% | –
8 | Cc1ccc(OP(=O)(Nc2ccccn2)Oc2ccc(C)cc2)cc1 | inactive: 5.75% | –
9 | O=c1c2cc([N+](=O)[O-])ccc2[nH]c2c([N+](=O)[O-])cc([N+](=O)[O-])cc12 | – | active: 0.631 µM
10 | CCOC(=O)NC(Sc1ccccc1)C(Cl)(Cl)Cl (centres undefined) | inactive: 3.09% | –
11 | CCNC(=S)/N=C(\N)N[N+](=O)[O-] | inactive: 14.2% | –
12 | O=C(OC1CN2CCC1CC2)c1cccc(Cl)c1 (centres undefined) | inactive: 13.6% | –
13 | O=P(Nc1ccccn1)(c1ccc(Br)cc1)c1ccc(Br)cc1 | inactive: 1.56% | –
14 | [N-]=[N+]=Nc1ccc([As](=O)(O)O)cc1 | inactive: 1.4% [at 13.5 µM] | –
15 | CN(C(=O)Cc1ccccc1)[C@H]1CC[C@@]2(CCCO2)C[C@@H]1N1CCCC1 | inactive: 4.35% | –
16 | O=P(Nc1nc2ccccc2s1)(c1ccccc1)c1ccccc1 | inactive: -4.84% | –
17 | CN1CCC[C@H](OC(=O)C(c2ccccc2)c2ccccc2)C1 | inactive: 1.72% [at 13.5 µM] | –
18 | C[C@@H](O)COc1ccc([As](=O)(O)O)cc1N | inactive: -0.236% [at 13.5 µM] | –
19 | CC(C)C(=O)NC(Sc1ccccc1)C(Cl)(Cl)Cl (centres undefined) | inactive: 8.17% | –
20 | O=P(Nc1nccs1)(c1ccccc1)c1ccccc1 | inactive: 7.05% | –
21 | c1nnnn1CCn1cnnn1 | inactive: 15.9% | –
22 | CCN(/C(=N/P(=O)(N1CCOCC1)N1CCOCC1)N1CCOCC1)c1ccc(OC)cc1 | inactive: 10.6% | –
23 | Nc1ccc([As](=O)(O)c2ccc(N)cc2)cc1 | inactive: 4.49% | –
24 | O=C(CO)Nc1ccc([As](=O)(O)O)cc1 | inactive: 10% [at 13.5 µM] | –

Row | SMILES | activity, negative = inhibition | Potency
25 | CC(=O)C1=CCCC2CCC1N2 (centres undefined) | inactive: -16.7% | –
26 | CC(C)=N/N=C(\N)N[N+](=O)[O-] | inactive: -6.07% | –
27 | CN(C)C(=O)OCCc1n(C)cc[n+]1C | inactive: 12.6% | –
28 | CCc1nc2c(n1)c1c(non1O)c1c2no[n+]1[O-] | inactive: -6.31% | –
29 | O=[N+]([O-])c1cc([N+](=O)[O-])c(CCNc2ccccc2)c([N+](=O)[O-])c1 | – | active: 11.2 µM
30 | O=[N+]([O-])c1cccc2n[nH]nc12 | inactive: 6.28% | –
31 | CC(=O)N1C2C3N(C(C)=O)C1C1N(C(C)=O)C(C(N1C(C)=O)N3C(C)=O)N2C(C)=O | inactive: 10.5% | –
32 | O=[N+]([O-])c1ncn(CCn2ncnc2[N+](=O)[O-])n1 | inactive: 4.02% | –
33 | O=C(O)CNc1ccc([As](=O)(O)O)cc1 | inactive: 14.9% | –
34 | O=C(Nc1cc([As](=O)(O)O)ccc1O)c1ccccc1 | inactive: 0.943% | –
35 | [N-]=[N+]=NCC(O)CN=[N+]=[N-] (centres undefined) | inactive: -4.9% [at 13.5 µM] | –
36 | CCN(N=Nc1nonc1N)c1nonc1N | inactive: 2.98% | –
37 | C(Cc1nn[nH]n1)c1nn[nH]n1 | inactive: -3.85% [at 13.5 µM] | –
38 | CC(=O)Nc1ccc([As](=O)(O)O)cc1 | inactive: 5.33% | –
39 | O=C(O)c1ccccc1[As](=O)(O)O | inactive: 5.6% | –
40 | CCOP(=O)(Nc1ccccc1)OCC | inactive: 12.7% | –
41 | CC(C)CC(=O)NC(Sc1ccc(Cl)cc1)C(Cl)(Cl)Cl (centres undefined) | inactive: 3.62% | –
42 | NCC[C@@H](N)CSP(=O)(O)O | inactive: -0.604% [at 13.5 µM] | –
43 | Cc1ccc(N/C(=N/P(=O)(N2CCOCC2)N2CCOCC2)N2CCOCC2)cc1 | inactive: 17% | –
44 | CN1CCCC(OC(=O)C(c2ccccc2)c2ccccc2)C1 (centres undefined) | inactive: -15.7% | –
45 | Clc1ccc(Cl)c(NC2=NCC(CBr)S2)c1 (centres undefined) | – | active: 10 µM
46 | COc1ccccc1OP(=O)(Nc1ccc(C)cn1)Oc1ccccc1OC | inactive: 0.722% | –
47 | O=[N+]([O-])c1ccc(C[As](=O)(O)O)cc1 | inactive: 16.7% [at 13.5 µM] | –
48 | COc1ccc(N/C(=N/P(=O)(N2CCOCC2)N2CCOCC2)N2CCOCC2)cc1 | inactive: 6.9% | –

Row | SMILES | activity, negative = inhibition | Potency
49 | c1ccc(P(c2ccccc2)c2ccccc2)cc1 | inactive: 14.8% | –
50 | Cc1c2c(nc3ccccc13)SC(C(Cl)Cl)C2 (centres undefined) | inactive: 7.23% | –
51 | O=C(OC1CN2CCC1CC2)C12CC3CC(CC(C3)C1)C2 (centres undefined) | inactive: -8.25% | –
52 | Cc1cc(=O)[nH]c(N[N+](=O)[O-])n1 | inactive: 8.21% | –
53 | COc1ccc2nc(NP(=O)(c3ccccc3)c3ccccc3)sc2c1 | inactive: 5.34% | –
54 | NC(=O)Nc1cc([As](=O)(O)O)cc(I)c1O | inactive: 13.4% [at 13.5 µM] | –
55 | ClCCSc1nnc(-c2cccnc2)o1 | inactive: -4.23% | –
56 | [N-]=[N+]=NCC(N)=O | inactive: 3.09% [at 13.5 µM] | –
57 | CC(C)NC(=O)NP(=O)(Oc1ccccc1)Oc1ccccc1 | inactive: 1.07% | –
58 | CCN(CC)C(=S)SC(NC=O)C(Cl)(Cl)Cl (centres undefined) | – | active: 31.6 µM
59 | O=[N+]([O-])c1cc([N+](=O)[O-])c(-c2ccn[nH]2)s1 | inactive: -10.7% | –
60 | C[As](=O)(O)c1cccc(C(=O)O)c1 | inactive: 1.89% | –
61 | Cc1ccc(OP(=O)(Nc2ccc([N+](=O)[O-])cn2)Oc2ccc(C)cc2)cc1 | inactive: 8.1% | –
62 | Cc1ccc2nc3c(c(C)c2c1)CC(C(Cl)Cl)S3 (centres undefined) | inactive: -3.61% | –
63 | O=P(Nc1ccccn1)(c1cccc2ccccc12)c1cccc2ccccc12 | inactive: 5.71% | –
64 | Cc1cc(SC(NC=O)C(Cl)(Cl)Cl)ncn1 (centres undefined) | – | active: 0.631 µM
65 | Cc1cc(SC(NC(=O)c2ccccc2)C(Cl)(Cl)Cl)nc(C(C)C)n1 (centres undefined) | – | active: 10 µM
66 | O=C(COc1ccccc1)OC1CN2CCC1CC2 (centres undefined) | inactive: 10.2% | –
67 | O=C(O)[C@@H](O)c1ccc([As](=O)(O)O)cc1 | inactive: 5.88% [at 13.5 µM] | –
68 | CC(C)/C=N\N=C(\N)N[N+](=O)[O-] | inactive: 7.35% | –
69 | O=[As](O)(c1ccccc1Br)c1ccccc1Br | inactive: -0.993% | –
70 | O=P1(Nc2ccccn2)COc2ccccc2OC1 | inactive: -4.26% | –
71 | CN(CCCl)Cc1cc(Cl)c(NC2=NCCN2)c(Cl)c1 | inactive: 12.1% | –
72 | Clc1n[nH]nc1-c1nn[nH][15n]1 | inactive: -8.11% | –

Row | SMILES | activity, negative = inhibition | Potency
73 | CC(C)(C)C(=O)NC(Sc1ncccn1)C(Cl)(Cl)Cl (centres undefined) | – | active: 20 µM
74 | O=P1(Nc2ncccn2)COc2ccccc2OC1 | inactive: 3.58% | –
75 | Cc1ccc(OCC(=O)OC2CN3CCC2CC3)cc1 (centres undefined) | inactive: 15.3% | –
76 | Cc1nn(-c2ccccc2)c2c1P(=O)(N1CCOCC1)N(C)C(c1ccccc1)=N2 (centres undefined) | – | active: 10 µM
77 | CN(C)C1(CNC(=O)c2ccc(S(C)(=O)=O)cc2)CCCCC1 | inactive: 2.98% | –
78 | O=C(/C=C/c1ccccc1)OC1CN2CCC1CC2 (centres undefined) | inactive: 9.24% | –
79 | NC(=O)Nc1ccc([As](=O)(O)O)cc1 | inactive: 5.4% [at 20.9 µM] | –
80 | O=[N+]([O-])CC(O)c1ccc([N+](=O)[O-])cc1 (centres undefined) | – | active: 25.1 µM
81 | CCOP1(=S)c2c(C)nn(CCC#N)c2N=C(c2ccc(F)cc2)N1C (centres undefined) | – | active: 22.4 µM
82 | CN(C(=O)Cc1ccccc1)[C@@H]1CC[C@]2(CCCO2)C[C@H]1N1CCCC1 | inactive: -5.8% | –
83 | O=[N+]([O-])c1ccc2c(c1)nnn2O | inactive: -0.33% | –
84 | CCOP1(=S)c2c(C)nn(CCC#N)c2N=C(c2ccccc2F)N1C (centres undefined) | inactive: 2.59% | –
85 | O=P(Nc1nccs1)(Oc1ccccc1)Oc1ccccc1 | inactive: 2.79% | –
86 | O=P(Nc1nccs1)(c1ccccc1)c1nc2ccccc2s1 (centres undefined) | – | active: 2.24 µM
87 | CS(=O)(=O)c1cc([N+](=O)[O-])c2no[n+]([O-])c2c1 | – | active: 7.51 µM
88 | O=[As](O)(O)c1ccc([As](=O)(O)O)cc1 | inactive: -8.38% [at 13.5 µM] | –
89 | NS(=O)(=O)Cc1ccc([As](=O)(O)O)cc1 | inactive: 5.68% [at 13.5 µM] | –
90 | O=C(CC(=O)c1ccccc1)O[C@H]1CN2CCC1CC2 | inactive: 1.14% [at 13.5 µM] | –
91 | COc1cc(C2NCCC3(OCCO3)C2(C)C)cc(OC)c1OC (centres undefined) | inactive: 2.66% | –
92 | CCOP(=O)(Nc1cccc2ccccc12)OCC | inactive: -10.6% | –
93 | Cc1cccc(OCC(=O)OC2CN3CCC2CC3)c1 (centres undefined) | inactive: 0.823% | –
94 | O=[As](O)(c1cccc(O)c1)c1cccc(O)c1 | inactive: 11.8% | –
